Legend:
HIF-1 = experiment: ODD-Luc assay (luciferase reporter) for HIF-1 inhibitory activity; assay type: cell-based, mouse
Method: The HIF-1 inhibitory of compound 1, 18, and the anti-diol diastereomer 22 were assessed with the ODD-Luc assay (Li, F.; Sonveaux, P.; Rabbani, Z. N.; Liu, S.; Yan, B.; Huang, Q.; Vujaskovic, Z.; Dewhirst, M. W.; Li, C. Y. Mol. Cell 2007, 26, 63-74, which is incorporated by reference). 4T1-ODD-Luc cells, stably transfected with the oxygen-dependent-degradation (ODD) domain of HIF-1α and a firefly luciferase reporter, were seeded in the 24-well plate at a density of 10^5 cells/well. After 16-hour incubation, cells were treated with 240 μM of Cobalt (II) Chloride (Sigma-Aldrich, St. Louis, Mo., USA) and serially diluted compounds for 24 h. To measure the luciferase signals, luciferin (150 mg/mL) was added and the plates were imaged using the Xenogen IVIS imaging system and associated Living Image software (Xenogen, Alameda, Calif.). Luciferase expression/activity was detected and quantified as relative light units (RLUs). Results are means±SD, n=3.
To determine HIF-1 inhibitory activity of 31 and 33, a luciferase-reporter based assay was used as a primary screen. […] Luciferase signals were detected and quantified as relative light units (RLUs).

4T1 cells = tested on: 4T1 cells
Method: Like MTT (3-(4,5-d imethylthiazol-2-yl)-2,5-diphenyltetrazolium bromide, a tetrazole), MTS was reduced into a formazan product by living cells in the presence of an electron coupling reagent (phenazine methosulfate, PMS). The absorbance of the formazan was detected at 490 nm. […] Then cells were washed and incubated another three hours with cell medium containing MTS/PMS solution at 37° C. (21% O2, 5% CO2). Relative cell survival rate was determined on the O.D. values measured at 490 nm.

Row | SMILES | less active than manassantin A (fold) (HIF-1) | therapeutic window IC50 (cytotoxicity)/IC50 (HIF-1 inhibition) (4T1 cells)
1 | COc1ccc([C@@H](O)[C@@H](C)Oc2ccc(C3OC(c4ccc(O[C@H](C)[C@H](O)c5ccc(OC)c(OC)c5)c(OC)c4)[C@H](C)[C@H]3C)cc2OC)cc1OC (some centres unmarked) [Compound 33] | 10 | 
2 | COc1ccc([C@@H](O)[C@@H](C)Oc2ccc(C3OC(c4ccc(O[C@H](C)[C@H](O)c5ccc(OC)c(OC)c5)c(OC)c4)[C@H](C)[C@H]3C)cc2OC)cc1OC (some centres unmarked) [manassantin A] |  | 100
